Measurements taken from US7250397B2, “Antiarrhythmic peptides” (Zealand Pharma A/S, priority 2000, dated 2007).

Columns and labels:
[1] = system: phospho-inositol turnover in neonatal rat cardiomyocytes; test: Phosphoinositol turnover in rat primary cardiomyocytes; assay type: cell-based; conditions: 100 nM + noradrenaline 300 nM; anoxia and glucose deprivation
Protocol: Neonatal Wistar rats (1-2 days old) are used. Hank's calcium- and magnesium-free balanced salt solution, buffered with 10 mM HEPES is used for washing during cell separation procedures. The hearts are excised, the ventricles isolated and the tissue cut into small pieces. The myocardial cells are isolated by stepwise enzymatic degradation with collagenase 0.05%, as described by^[35]. After repeated rounds of centrifugation and washing, the precipitated cells are resuspended in culture medium M199 with Earle's salt, 10% NCS, penicillin (75 U/mL), and streptomycin (75 U/mL) and pre-plated in a Petri dish for 90 minutes. The non-adherent cells are collected in the culture medium and plated in multidishes at 2.5*10^5 cells/well. The cultures are kept in a water-saturated CO2-incubator at 37° C. The cardiomyocyte cultures are used for analyses after 6-7 days.
Cardiomyocyte cultures are incubated for 48 hours in culture medium containing […] myo-[2-^3H]inositol to label the inositol phospholipids. On the day of analysis the medium is replaced by a buffer solution containing lithium and incubated at 37° C., as described by Meier et al.^[36]. […] The [^3H]inositol mono-phosphates are eluted and radioactivity in the fraction measured by liquid scintillation counting. […]

[2] = In vitro stability test in human serum; assay type: in vitro ADME; conditions: 37° C., 0.1 mg/ml, mean n=3
Protocol: (§1) The stability of peptides is analysed in different plasma and serum types. The peptides are incubated at 37° C. in plasma and samples taken at approx. 9 regular intervals between t=0 and t=156 min are analysed by HPLC.
(§2) This is done by subsequent injections of the drug, plasma, and a co-injection with the drug and the plasma, followed by optimisation of the LC method parameters until a satisfactory separation is obtained. Three parallel experiments are performed for each plasma type:100 μl of peptide is mixed with 900 μl plasma at t=0 and incubated at 37° C. (drug-plasma mixture conc. 0.1 mg/ml). Samples of 100 μl of the drug-plasma mixture are removed at appropriate intervals and the degradation stopped by precipitation of the sample with 10 μl MeCN:TFA 50:50 v/v. A control plasma sample without the drug treated in the same manner is also taken. The plasma samples are centrifuged for 15 min. at 12,000 rpm (Eppendorf centrifuge) at ambient temperature. The resulting supernatant solution is transferred to 300 μl HP autosamler vials and analyzed by HPLC. […]
(§3) The samples are analyzed in the following order: blank, the peptide at 0.1 mg/mL, the plasma without the peptide, the three parallel samples for t=0, the three parallel samples for t=5 min. the three parallel samples for t=10 min. etc. […]

[3] = In vitro stability test in human plasma (heparin); assay type: in vitro ADME; conditions: 37° C., 0.1 mg/ml, mean n=3
Protocol: as §1
as §2, with “HPLC. HPLC analysis are performed as follows: • Compound CE1 • Column: Vydac 218MS52, 250×2.1 mm, flow: 0.200 mL/min. Temp.: 40° C. • Solvent: MeCN/MQW/TFA (0.1%). Run time: 25 min. • Inj.vol.:15 μL. Detection: DAD1 A, 214.5 nm • Compound CE2 • Column: Kromasil KR100-10C8, 250×4.6 mm, flow: 1 mL/min. Temp.: 40° C. • Solvent: MeCN/MQW/TFA (0.1%). Run time: 20 min. • Inj.vol.:25 μL. Detection: VWD 1 A, 214.5 nm. • Except for rabbit serum: DAD1 A, 214.5 nm • Except for rat plasma: Solvent: MeOH/MQW/TFA (0.1%). Detection:VWD1 A, 210 nm • Compound CE3 • Column: Vydac 218MS52, 250×2.1 mm, flow: 0.200 mL/min. Temp.: 40° C. • Solvent: MeCN/MQW/TFA (0.1%). Run time: 35 min. • Inj.vol.:15 μL. Detection: DAD1 A, 214.5 nm • Compound 3 • Column: Kromasil KR100-10C8, 250×4.6 mm, flow: 1 mL/min.” for “HPLC.”
as §3

Ac-D-Tyr-D-Pro-D-4Hyp-Gly-D-Ala-Gly-NH2 [Compound 2]
increase in phospho-inositol turnover relative to the increase by noradrenaline alone [1]: about 70%
T1/2 [2]: >5 h
T1/2 [3]: >5 h
